Measured affinities in a library of Ab-95 light chain variants

Source: Engelhart et al. 2022 (doi:10.1038/s41597-022-01779-4), MIT Lincoln Laboratory and A-Alpha Bio; data file from the FLAb repository.

Binding partner: SARS-CoV-2 spike HR2 peptide, sequence PDVDLGDISGINAS.

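Phage display of a naive human antibody library on the peptide gave the parent. In library AAYL52, one, two or three CDR residues were substituted; doubles and triples were drawn at random. Affinity was read by AlphaSeq, a pooled yeast mating assay with surface-displayed partners. After mating in shaken culture at 30 °C for 16 h, diploids were selected and their barcode pairs sequenced. The ratio of observed to expected reads was calibrated, replicate by replicate, on BCL2-family standards whose Kd was known from biolayer interferometry. There are three technical replicates.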

Parent: Ab-95, a human scFv built as VH, a 15-residue (Gly4Ser)3 linker, VL. Only the CDRs of the light chain vary.
VH: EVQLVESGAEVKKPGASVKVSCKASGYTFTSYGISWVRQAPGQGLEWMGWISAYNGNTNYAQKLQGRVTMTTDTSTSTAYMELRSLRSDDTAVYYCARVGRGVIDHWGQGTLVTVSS
VL: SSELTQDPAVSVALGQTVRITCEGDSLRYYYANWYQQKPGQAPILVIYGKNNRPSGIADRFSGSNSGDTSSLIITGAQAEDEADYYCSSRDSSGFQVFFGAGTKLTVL

Each variant's VL is given in full. The read-out is the apparent dissociation constant on a log10 scale (nM): the lower, the stronger. A pair that was not seen in that replicate is written "nd"; this usually means weak binding, but a binder can also be missed. Nonspecific signal, from three strains lacking the peptide, appeared in 28% of pairings of library AAYL52, centred on 3.91 (5% of these signals below 2.90); values are not corrected for it. Also given: how often the same scFv was detected with the empty control strains, with their mean in brackets. For reference, the parent read 2.31 as the reference entry and 2.25 as a member of this library.

| VL | log10 Kd (nM) by replicate | control signals |
|---|---|---|
| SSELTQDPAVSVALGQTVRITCEGDSLRYYYANWYQQKPGQAPILVIYTKNNRPSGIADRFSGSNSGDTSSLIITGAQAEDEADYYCSSRDSSEAQVFFGAGTKLTVL | 5.09 4.62 nd | 4/9 (4.27) |
| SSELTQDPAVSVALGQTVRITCEGDSLRYYYANWYQQKPGQAPILVIYGKNNEPSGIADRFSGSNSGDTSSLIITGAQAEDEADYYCSGRDSSEFQVFFGAGTKLTVL | nd nd nd | 3/9 (3.52) |
| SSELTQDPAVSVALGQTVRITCEGDSLRYYYANWYQQKPGQAPILVIYTKQNRPSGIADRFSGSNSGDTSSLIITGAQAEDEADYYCESRDSSGFQVFFGAGTKLTVL | nd 3.84 3.91 | 4/9 (3.81) |
| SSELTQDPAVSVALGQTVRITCEGKSLRYYIAHWYQQKPGQAPILVIYGKNNRPSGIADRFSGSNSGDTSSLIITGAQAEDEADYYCSSRDSSGFQVFFGAGTKLTVL | nd nd 4.13 | 1/9 (4.56) |
| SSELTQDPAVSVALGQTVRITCEGDSLRYYYANWYQQKPGQAPILVIYDKNNRMSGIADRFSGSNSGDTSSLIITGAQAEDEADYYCSSRPSSGFQVFFGAGTKLTVL | 2.69 2.18 2.46 | 1/9 (3.37) |
| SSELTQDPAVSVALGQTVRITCEGDSLRYYYANWYQQKPGQAPILVIYGKNSRPSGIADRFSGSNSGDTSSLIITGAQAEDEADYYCSSRDSSGFPRFFGAGTKLTVL | 2.78 2.40 2.36 | 4/9 (3.89) |
| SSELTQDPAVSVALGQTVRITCEGDSLREYYANWYQQKPGQAPILVIYGCNNRPSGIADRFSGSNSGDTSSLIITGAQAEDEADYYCSSRDSRGFQVFFGAGTKLTVL | 3.82 5.70 4.06 | 6/9 (3.36) |
| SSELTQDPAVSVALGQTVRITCECDSLRYYYANWYQQKPGQAPILVIYGKNNRPSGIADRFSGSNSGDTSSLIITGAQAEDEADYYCSSRDASGFQVNFGAGTKLTVL | 3.12 3.77 3.99 | 2/9 (4.18) |
| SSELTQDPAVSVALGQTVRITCEGDSLRYYYFNWYQQKPGQAPILVIYGKNNRPSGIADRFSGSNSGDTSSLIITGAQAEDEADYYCWSRDSSGFQAFFGAGTKLTVL | nd nd 2.57 | 0/9 |
| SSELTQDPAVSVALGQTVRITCEGDSLRYYYTNWYQQKPGQAPILVIYGKNNRPSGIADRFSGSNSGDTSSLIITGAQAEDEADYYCSSRNSSCFQVFFGAGTKLTVL | 2.87 2.82 2.01 | 4/9 (3.43) |
| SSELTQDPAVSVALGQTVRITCEGDSLRQTYANWYQQKPGQAPILVIYGKVNRPSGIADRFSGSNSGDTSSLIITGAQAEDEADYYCSSRDSSGFQVFFGAGTKLTVL | 2.38 2.66 2.26 | 4/9 (3.49) |
| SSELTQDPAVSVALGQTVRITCEGDSLRYYYANWYQQKPGQAPILVIYGKNARPSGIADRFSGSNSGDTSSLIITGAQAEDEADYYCSSRDGSGSQVFFGAGTKLTVL | 2.92 3.01 2.44 | 5/9 (4.21) |
| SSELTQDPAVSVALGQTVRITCSGDSLRKYYANWYQQKPGQAPILVIYGKNNRPSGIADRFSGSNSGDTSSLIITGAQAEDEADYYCSSRDSSGFQKFFGAGTKLTVL | 4.21 3.38 3.22 | 5/9 (4.25) |
| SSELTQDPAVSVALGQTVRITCLGDSLRYYYANWYQQKPGQAPILVIYGKNNRPRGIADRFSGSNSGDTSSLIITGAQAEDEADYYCSHRDSSGFQVFFGAGTKLTVL | 3.25 3.08 3.51 | 2/9 (4.70) |
| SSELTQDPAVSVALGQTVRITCEGDSLRYYYAPWYQQKPGQAPILVIYGKNNRPSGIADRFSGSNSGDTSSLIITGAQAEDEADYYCSGRDSSGFQNFFGAGTKLTVL | nd nd nd | 4/9 (3.77) |
| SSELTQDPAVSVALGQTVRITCEGDWLRKYYANWYQQKPGQAPILVIYGKNNRSSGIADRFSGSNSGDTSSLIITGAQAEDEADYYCSSRDSSGFQVFFGAGTKLTVL | 5.43 nd nd | 2/9 (3.48) |
| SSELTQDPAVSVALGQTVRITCEGTSLRYYYANWYQQKPGQAPILVIYTKNNRPQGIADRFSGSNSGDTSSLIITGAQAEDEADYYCSSRDSSGFQVFFGAGTKLTVL | nd 3.47 3.18 | 2/9 (3.67) |
| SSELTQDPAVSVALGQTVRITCEGDSLRYYYANWYQQKPGQAPILVIYHKPNRPYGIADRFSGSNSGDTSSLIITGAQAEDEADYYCSSRDSSGFQVFFGAGTKLTVL | 4.76 nd nd | 3/9 (3.57) |
| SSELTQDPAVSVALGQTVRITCEGDSLRNYYASWYQQKPGQAPILVIYGKNNRPSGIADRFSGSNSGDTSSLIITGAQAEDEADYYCSSRLSSGFQVFFGAGTKLTVL | nd nd nd | 1/9 (4.74) |
| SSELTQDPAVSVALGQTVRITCPGDSLRYYYANWYQQKPGQAPILVIYGKNNRPSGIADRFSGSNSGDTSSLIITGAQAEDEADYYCSSRDSSGGQVFFGAGTKLTVL | 3.74 4.24 nd | 0/9 |
| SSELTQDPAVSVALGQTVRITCAGDSSRYYYANWYQQKPGQAPILVIYGKNNRPSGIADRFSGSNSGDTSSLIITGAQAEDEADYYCSHRDSSGFQVFFGAGTKLTVL | nd nd nd | 2/9 (4.31) |
| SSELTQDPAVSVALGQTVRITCEGKSLRYYYANWYQQKPGQAPILVIYGKNNRPSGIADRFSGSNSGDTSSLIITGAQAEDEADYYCSVRDSSGPQVFFGAGTKLTVL | 2.25 2.02 2.00 | 4/9 (3.20) |
| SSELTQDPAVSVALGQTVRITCEGKSLRYYYSNWYQQKPGQAPILVIYGKNNRPSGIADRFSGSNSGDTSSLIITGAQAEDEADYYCSSRDSSGFYVFFGAGTKLTVL | 3.34 4.03 3.13 | 3/9 (3.98) |

Top 3 of the variants detected in all replicates, tightest first:

| VL | log10 Kd (nM) by replicate | control signals |
|---|---|---|
| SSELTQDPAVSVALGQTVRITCEGKSLRYYYANWYQQKPGQAPILVIYGKNNRPSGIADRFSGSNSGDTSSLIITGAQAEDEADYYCSVRDSSGPQVFFGAGTKLTVL | 2.25 2.02 2.00 | 4/9 (3.20) |
| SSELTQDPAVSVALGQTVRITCEGDSLRQTYANWYQQKPGQAPILVIYGKVNRPSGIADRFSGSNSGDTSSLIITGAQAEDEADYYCSSRDSSGFQVFFGAGTKLTVL | 2.38 2.66 2.26 | 4/9 (3.49) |
| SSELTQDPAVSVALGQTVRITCEGDSLRYYYANWYQQKPGQAPILVIYDKNNRMSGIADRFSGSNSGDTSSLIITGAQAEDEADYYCSSRPSSGFQVFFGAGTKLTVL | 2.69 2.18 2.46 | 1/9 (3.37) |